This note sets out measurements from ChEMBL document CHEMBL2434907, “Synthesis and SAR studies of benzimidazolone derivatives as histamine H3-receptor antagonists” (Bioorg Med Chem Lett, 2013).

Protein sequences, listed by entry. Tags and fused reporters are not part of them. Lines headed by an entry give the natural chain unless they say otherwise; changes in a name come on top.
UniProt Q9JI35: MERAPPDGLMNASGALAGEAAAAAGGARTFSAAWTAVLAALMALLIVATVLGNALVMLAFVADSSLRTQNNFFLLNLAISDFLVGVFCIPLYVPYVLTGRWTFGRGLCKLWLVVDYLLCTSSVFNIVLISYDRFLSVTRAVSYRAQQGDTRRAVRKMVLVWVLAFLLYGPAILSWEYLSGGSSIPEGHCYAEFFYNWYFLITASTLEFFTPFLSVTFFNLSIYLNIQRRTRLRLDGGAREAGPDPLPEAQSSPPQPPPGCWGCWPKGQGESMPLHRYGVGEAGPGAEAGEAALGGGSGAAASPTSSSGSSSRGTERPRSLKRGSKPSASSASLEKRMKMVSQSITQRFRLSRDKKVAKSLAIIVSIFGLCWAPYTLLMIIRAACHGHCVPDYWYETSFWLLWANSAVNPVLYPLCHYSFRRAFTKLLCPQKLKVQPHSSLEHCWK

The target in this assay is Histamine H3 receptor (Cavia porcellus, UniProt Q9JI35). Nature of the assay: Displacement of [3H]-N-alpha-methyl histamine from histamine H3 receptor in guinea pig brain homogenates. In kind it is tissue-based.
Turning to `COCCn1c(=O)n(C2CCN(C(=O)C3CCN(Cc4ccnc(N)c4)CC3)CC2)c2ccccc21`, the Ki was found to be 1.5 nM.

In turn, `Nc1cc(CN2CCC(C(=O)N3CCC(n4c(=O)n(CC(F)(F)F)c5cc(F)ccc54)CC3)CC2)ccn1` had a Ki of 1.5 nM.

`Nc1cc(CN2CCC(C(=O)N3CCC(n4c(=O)n(-c5ccc(F)c(F)c5)c5cc(F)ccc54)CC3)CC2)ccn1` displayed a Ki of 2.8 nM.

In turn, `Nc1cc(CN2CCC(C(=O)N3CCC(n4c(=O)n(-c5ncccn5)c5cc(F)ccc54)CC3)CC2)ccn1` had a Ki of 4 nM.
